# In article PMC3937304, “The Secreted Triose Phosphate Isomerase of Brugia malayi Is Required to Sustain Microfilaria Production In Vivo” (PLoS Pathogens, 2014):
# Substrate: O=C(CO)COP(=O)(O)O
# Test: purified protein
# Type: biochemical, Oryctolagus cuniculus
# Settings: DHAP to G3P direction, 100 mM TEA-HCl pH 7.6, 1 mM EDTA, 1 mM NAD+, 5 mM disodium hydrogen arsenate, 25 °C, 0.16-10 mM DHAP
protein,measurement,value
"native rabbit TPI (Oryctolagus cuniculus) (protein, native commercial enzyme (Sigma), untagged) APSRKFFVGGNWKMNGRKKNLGELITTLNAAKVPADTEVVCAPPTAYIDFARQKLDPKIAVAAQNCYKVTNGAFTGEISPGMIKDCGATWVVLGHSERRHVFGESDELIGQKVAHALSEGLGVIACIGEKLDEREAGITEKVVFEQTKVIADNVKDWSKVVLAYEPVWAIGTGKTATPQQAQEVHEKLRGWLKSNVSDAVAQSTRIIYGGSVTGATCKELASQPDVDGFLVGGASLKPEFVDIINAKQ",Km,1732 µM
